# Measured values as given in patent US20260014267A1.
# Target: CD3e
# Assay: ELISA; MTSP1-treated
# Conditions: bispecific antibody
substance,measurement,value
PC4 + MTSP1,EC50,0.07 nM
